Results: patent US4608365A, “Treatment of neurologic functions” (priority 1984, dated 1986)

Experiment: Pharmacokinetics in patient cerebrospinal fluid and plasma
Settings: with TRH intravenous infusions; normal less than about 600
Method: In three ALS patients given 25 mg TRH intravenously during 6 minutes, concommitant TRH values were measured in the plasma and serum at 0, 6 and 12 minutes.

In the case of “histidine-proline diketopiperazine [cyclo-HisPro]”, the “cerebrospinal fluid cyclo-HisPro level” value was ≤ 10,508 pg/ml.
